System: IL-12 activation of STAT4 in NK-92 cells
Assay: IL-12 activation of STAT4 in NK-92 cells using AphaLISA SureFire technology
Format: cell-based
Settings: Homo sapiens, NK92, AlphaLISA SureFire, average IC50, read-out: IL12 pSTAT4 IC50
Protocol: IL-2 is added freshly to the medium with each medium refreshment step. Cells are cultured in a humidified incubator at 37° C. 5% CO2.
A subcultured fraction of NK-92 cells is washed once in culture medium without rhIL-2 the day before the experiment and incubated overnight in a culture flask.
5% CO2. […] NK-92 cells are triggered with rhIL-12 for 30 min at 37° C. 5% CO2.
After 30 min of cytokine stimulation the cells are lysed by addition of 15 μL 5× lysis buffer (supplemented with the AlphaLISA kit). After 10 minutes, plates are frozen at −80° C. overnight and the next day the levels of phospho-STAT4 are quantified using the AlphaLISA SureFire ULTRA p-STAT4 (Tyr693) (Perkin Elmer, Catalogue number ALSU-PST4-A10K) according to the manufacturers instructions. AlphaLISA signal (relative light units) is measured using an Envision (Perkin Elmer).
The percentage inhibition is calculated as: […]
RLU(trigger/veh): Relative lumescent signal determined in presence of vehicle and trigger
RLU(test compound): Relative luminescent signal determined in presence of test compounds and trigger
PIN values are plotted for compounds tested in dose-response and IC50 values are derived using GraphPad Prism Software applying non-linear regression (sigmoidal) curve fitting. The data are expressed as the average IC50 from different experiments.

- IC50: 0.393 µM
Structure (SMILES): Cc1cc(C#N)ncc1Oc1cc(Nc2ccc(C(=O)N3CC(C(C)(C)O)C3)nn2)c2ncn(C)c2n1 [Compound 111, 5-[7-[[6-[3-(1-hydroxy-1-methyl-ethyl)azetidine-1-carbonyl]pyridazin-3-yl]amino]-3-methyl-imidazo[4,5-b]pyridin-5-yl]oxy-4-methyl-pyridine-2-carbonitrile]

Reference: patent publication US11564923B2, “Compounds and pharmaceutical compositions thereof for the treatment of inflammatory disorders” (Galapagos NV, priority 2017, dated 2023)
